How the values were obtained:
[1] = molecular target: Human KLKB1 (Homo sapiens (Human), UniProt P03952); experiment: KLKB1 kallikrein activity inhibition assay (chromogenic substrate S-2302); type: biochemical; details: Table C
Method: The KLKB1 kallikrein activity reported herein (e.g., Tables B, C, and D) was obtained as follows. Human KLKB1 protein was obtained from Enzyme Research Labs. […] KLKB1 was assayed in buffer containing 0.05 M Tris (pH 7.4), 0.01 M NaCl and 0.2% w/v PEG-8000. The final concentration of enzyme used was 3 nM KLKB1. […] All assays were performed in 96-well microtiter plates at room temperature (RT). […] Inhibitor IC50 values were determined by adding test compound as ten point, three-fold serial dilutions in buffer solution, as known in the art. The plate was read at 10 minutes after substrate addition. The IC50 was calculated by plotting the percent (%) inhibition against compound concentration and fitting the data to a constrained four parameter sigmoidal curve, as known in the art.

Chains of the proteins cited; added tags and fusions are not shown. Residues count along the entry.
UniProt P03952, 20-390 partner limits assumed: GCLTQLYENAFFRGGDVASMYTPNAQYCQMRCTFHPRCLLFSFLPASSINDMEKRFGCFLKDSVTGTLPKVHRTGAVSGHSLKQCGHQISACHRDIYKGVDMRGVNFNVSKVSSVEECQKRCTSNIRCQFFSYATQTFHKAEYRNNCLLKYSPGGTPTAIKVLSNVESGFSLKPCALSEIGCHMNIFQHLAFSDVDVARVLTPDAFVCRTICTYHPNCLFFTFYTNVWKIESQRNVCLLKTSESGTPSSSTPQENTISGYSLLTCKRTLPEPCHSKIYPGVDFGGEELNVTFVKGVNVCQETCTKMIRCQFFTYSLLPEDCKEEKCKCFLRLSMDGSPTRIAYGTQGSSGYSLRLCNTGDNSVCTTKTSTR
UniProt P03952, 391-638 limits assumed: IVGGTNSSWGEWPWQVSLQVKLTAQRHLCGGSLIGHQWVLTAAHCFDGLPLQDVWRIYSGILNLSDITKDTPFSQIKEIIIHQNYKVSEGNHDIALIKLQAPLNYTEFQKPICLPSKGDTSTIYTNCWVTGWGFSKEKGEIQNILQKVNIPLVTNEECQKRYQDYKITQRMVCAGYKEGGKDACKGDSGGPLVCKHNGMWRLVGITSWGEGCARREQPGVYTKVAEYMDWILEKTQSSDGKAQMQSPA
UniProt P06870, 25-262: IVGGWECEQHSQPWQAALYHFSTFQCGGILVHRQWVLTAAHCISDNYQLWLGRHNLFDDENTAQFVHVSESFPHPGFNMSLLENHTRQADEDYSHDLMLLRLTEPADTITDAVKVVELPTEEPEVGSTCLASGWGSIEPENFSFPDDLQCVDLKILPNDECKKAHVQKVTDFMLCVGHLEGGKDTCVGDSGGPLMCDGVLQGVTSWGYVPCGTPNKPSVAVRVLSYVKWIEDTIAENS

[2] = molecular target: Recombinant human tissue kallikrein (KLK1) (Homo sapiens (Human), UniProt P06870); experiment: KLK1 kallikrein activity inhibition assay (Pro-Phe-Arg-AMC substrate); type: biochemical; details: Table C
Method: The KLK1 kallikrein activity reported herein (e.g., Tables B and C) was obtained as follows. Recombinant human tissue kallikrein (KLK1) was obtained from R&D Systems. […] KLK1 enzyme is activated by incubating 0.5 mg/ml KLK1 combined with 0.1 μg/ml thermolysin in a buffer of 0.05 M Tres (pH 7.5), 0.15 M NaCl, and 0.01 M CaCl2 for one hour at 37° C. The thermolysin is then deactivated by the addition of equal parts 20 mM 1, 10 phenanthroline solution in water. The activated KLK1 solution is then added to CHES buffer (0.05 M CHES, 0.15 M NaCl, 0.01 M CaCl2, pH 10) for a final concentration of 5 nM along with the test article and incubated for 10 minutes. […] Substrate activation is read 10 minutes after substrate addition using a Synergy H1 multifunction plate reader (Biotek) programmed with a 360 nm excitation wavelength and a 480 nm emission wavelength. Inhibitor response was established by adding test compound as ten point, three-fold serial dilutions, as known in the art. The IC50 was calculated by plotting the percent (%) inhibition against compound concentration and fitting the data to a constrained four parameter sigmoidal curve, as known in the art.

COc1ccccc1C(=O)n1nc(-c2cccs2)nc1SC [Cmpd 15]
IC50 [1]: 1 to 10 µM
IC50 [2]: 1 to 10 µM
